The series has as its system HEK-293T. In words: Cytotoxicity against HEK293T cells after 30 hrs by resazurin dye based fluorescence assay. It is filed as cell-based. Particulars: human. A general note: The colour change of resazurin is a common sign of viable cells or microbes.

From ChEMBL document CHEMBL4196235, “SAR of 4-Alkoxybenzoic Acid Inhibitors of the Trypanosome Alternative Oxidase” (ACS Med Chem Lett, 2018) come the findings set out here.

SMILES strings stand for the structures.

`O=[As]c1ccccc1` (stereo unspecified) displayed a CC50 of 1100 nM.

A word on the CC50: it is the concentration giving 50% cytotoxicity.
